Test results from PubChem BioAssay AID1347120 (National Center for Advancing Translational Sciences (NCATS), 2019).
The entries are a selection whose mix differs from that of the whole data set. Results filed as inconclusive are left out. Calls of active or inactive are those of the source. Calls come from the whole dose curve; as a rule, active = well fitted activation curve with a large enough effect; inconclusive = small, poorly fitted or top-dose-only effect; inactive = no such curve, though single readings can be large or run the other way.

assay: qHTS for Suppressors of FUS Proteinopathy: Primary screen using FUS-linked yeast assay;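 note: plate controls were DMSO vehicle for no effect and reference control for full effect; nearly all actives have a fitted effect of over 55% in size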; settings: S. cerevisiae FUS-expressing, OD600, 24 h; at 76.6 µM (top of the series)
Excerpt: Several widespread neurodegenerative diseases, including Alzheimer disease, Huntington disease, Frontotemporal Lobar Degeneration (FTLD) and Amyotrophic Lateral Sclerosis (ALS), share a common pathological feature, namely accumulation of specific protein aggregates in diseased tissue. These diseases which is associated with protein misfolding (proteinopathies) have become increasingly problematic as the population ages and life expectancies are extended. Most proteinopathies are currently incurable, a situation confounded by the fact that the basis of neurodegeneration is generally poorly understood. There exists urgent and significant need to find therapeutics that can inhibit the toxicity associated with protein aggregation. A novel approach to understand the underlying mechanisms of neurodegenerative diseases has recently emerged in which the disease conditions are modeled in the yeast (Saccharomyces cerevisiae), a tractable eukaryotic organism with conserved protein quality control mechanisms. Yeast offers quick and reliable genetic manipulations and can be easily tailored to high-throughput screening (HTS).
For this project, a yeast model of the FUS proteinopathies (a spectrum of neurodegenerative diseases that include ALS and a subtype of FTLD) was generated and employed. The cytoplasmic accumulation of the DNA/RNA-binding protein FUS (also known as TLS) is causative to both familial and sporadic forms of ALS and FTLD. This yeast model recapitulates neuronal pathology by showing severe cytotoxicity associated with cytoplasmic accumulation of FUS aggregates and a specific interaction between FUS and TDP-43, another ALS-associated protein. […] Specifically, the cellular accumulation of misfolded FUS that disrupts RNA homeostasis in both yeast and higher eukaryotes. This model was validated to be suitable for quantitative HTS (qHTS) use for finding genetic or chemical factors that restore growth. […] Identified compounds that inhibits FUS-yeast toxicity is flagged, re-acquired, and validated for further investigation and optimization.
NIH Chemical Genomics Center [NCGC]
NIH Molecular Libraries Probe Production Centers Network [MLPCN]
Assay Submitter (PI): Frank Shewmaker PhD, Uniformed Services University of the Health Sciences
Compound CP55940 was used as the positive control. Column 1 was treated with CP55940 titration from 92uM (final concentration, 1:2 dilution), while Column 2 was treated with top dose 92uM. Columns 3 and 4 were treated with DMSO only as negative control to assess background and noise signal.
Four hundred fifty microliter of cultured yeast (in 20mL rich medium) provided by Dr. Shewmaker lab was incubated at 30C at 99% humidity for 3hr. The culture was then spun down at 4000rpm for 5min and the cell pellet was resuspended in 2mL of Sdmin Media + ALU(330) + 2.5% Raffinose. One hundred microliter of the suspension was added to 900uL of water and OD of the solution was obtained. Twenty mL of responding medium (provided by Shewmaker lab) + 2.5% raffinose was added to ensure cell density of 0.1; the solution was incubated overnight. Working cell solution (FUS-yeast in Sdmi + Sdmi + 1X ALU + 2% galactose media) was prepared (final OD at 0.005) and 3uL was dispensed in a 1536-well Aurora high based clear bottom assay plates. Controls and library compounds (at various final concentrations from 40uM to 0.32uM) were added using a 1536-well pin array using the Kalypsys pin-tool. The plates were then incubated for 24hrs in a cell-culture incubator (30C; 99% humidity). Absorbance at 600nm was then read using the PerkinElmer ViewLux plate reader.

| Structure (SMILES) | growth rescue (activation) |
| --- | --- |
| CC(=O)Nc1ccc([As](=O)(O)O)c(O)c1 | inactive: -9.02% |
| CCOc1ccc(C2=NCC(CBr)S2)cc1 (centres undefined) | inactive: -22.6% |
| O=P1(Nc2nc3ccc(Cl)cc3s2)COc2ccccc2O1 (centres undefined) | inactive: -39.4% |
| CCc1cc(O)c([N+](=O)[O-])c(C)c1[N+](=O)[O-] | inactive: -1.03% |
| CC(C)(C)C(=O)NC(Sc1ccccc1)C(Cl)(Cl)Cl (centres undefined) | inactive: -5.79% |
| Cc1ccc(OP(=O)(Nc2ccccn2)Oc2ccc(C)cc2)cc1 | inactive: 10.7% |
| CC(=O)NC(SC(=S)N(CC(C)C)CC(C)C)C(Cl)(Cl)Cl (centres undefined) | inactive: -3.12% |
| COC(=O)c1cc2c(s1)N=C(c1ccccc1)N(C)P2(=O)N1CCOCC1 (centres undefined) | inactive: 5.51% |
| CCC(=O)N1C2C3N(C(=O)CC)C1C1N(C(=O)CC)C(C(N1C(=O)CC)N3C(=O)CC)N2C(=O)CC | inactive: 8.16% |
| O=C(OC1CN2CCC1CC2)c1ccccc1 (centres undefined) | inactive: 12.7% |
| CN(C)C(=O)Oc1noc2ccccc12 | inactive: -3.19% |
| O=c1c2cc([N+](=O)[O-])ccc2[nH]c2c([N+](=O)[O-])cc([N+](=O)[O-])cc12 | inactive: 10.6% |
| Cc1ccccc1OP(=O)(Nc1ccccn1)Oc1ccccc1C | inactive: 5.66% |
| CC(NC(=O)COC(=O)C(O)(c1ccccc1)c1ccccc1)c1ccccc1 (centres undefined) | inactive: -2.61% |
| O=C(NC1CCS(=O)(=O)C1)NP(=S)(Oc1ccccc1)Oc1ccccc1 (centres undefined) | inactive: -2.11% |
| CCNC(=S)/N=C(\N)N[N+](=O)[O-] | inactive: -7.6% |
| Cc1ccc(NP(=O)(Oc2cccc(C)c2)Oc2cccc(C)c2)nc1 | inactive: -6.55% |

| Structure (SMILES) | growth rescue (activation) |
| --- | --- |
| c1ccc(-c2nn[nH]n2)c(-c2nn[nH]n2)c1 | inactive: 13.9% |
| O=P1(N(CCCl)CCCl)OCCC2CCCCN21 (centres undefined) | inactive: 3.17% |
| O=[N+]([O-])c1ncn(CCn2cnc([N+](=O)[O-])n2)n1 | inactive: -15.3% |
| O=[N+]([O-])c1ccc(O)c(/C=N/Nc2ccc([N+](=O)[O-])cc2[N+](=O)[O-])c1 | inactive: -17.3% |
| O=[As](O)(c1ccccc1)c1ccc(O)cc1 | inactive: -3.16% |
| Nc1ccc([As](=O)(O)c2ccc([N+](=O)[O-])cc2)cc1 | inactive: 21.3% |
| C(Cc1nn[nH]n1)Cc1nn[nH]n1 | inactive: -27.2% |
| O=C(OC1CN2CCC1CC2)c1cccc(Cl)c1 (centres undefined) | inactive: 13.8% |
| Nc1ccc(CCCCOc2ccccc2)cc1 | inactive: 22.7% |
| COc1ccc(N)c([N+](=O)[O-])c1[N+](=O)[O-] | inactive: -13.1% |
| CN(C)C1(CNC(=O)c2ccc(Cl)c(S(N)(=O)=O)c2)CCCCC1 | inactive: 4.78% |
| O=P(Nc1ccccn1)(c1ccc(Br)cc1)c1ccc(Br)cc1 | inactive: 52.9% |
| C[C@H]1OP(=O)(Oc2ccccc2)[C@H](O)[C@H](O)[C@H]1N=[N+]=[N-] (some centres undefined) | inactive: 14.5% |
| O=P(Nc1nc2ccccc2s1)(c1ccccc1)c1ccccc1 | inactive: 29.6% |
| O=P(Nc1nccs1)(c1ccccc1)c1ccccc1 | inactive: -20.4% |
| CC(C)C(=O)NC(Sc1ccccc1)C(Cl)(Cl)Cl (centres undefined) | inactive: 14.9% |
| c1nnnn1CCn1cnnn1 | inactive: -7.7% |
